Data: article PMC2578980 (The Yale Journal of Biology and Medicine, 1998)

Biological target: T1, human CCK-BR (Homo sapiens, UniProt P32239)
T1 sequence (P32239 1-447): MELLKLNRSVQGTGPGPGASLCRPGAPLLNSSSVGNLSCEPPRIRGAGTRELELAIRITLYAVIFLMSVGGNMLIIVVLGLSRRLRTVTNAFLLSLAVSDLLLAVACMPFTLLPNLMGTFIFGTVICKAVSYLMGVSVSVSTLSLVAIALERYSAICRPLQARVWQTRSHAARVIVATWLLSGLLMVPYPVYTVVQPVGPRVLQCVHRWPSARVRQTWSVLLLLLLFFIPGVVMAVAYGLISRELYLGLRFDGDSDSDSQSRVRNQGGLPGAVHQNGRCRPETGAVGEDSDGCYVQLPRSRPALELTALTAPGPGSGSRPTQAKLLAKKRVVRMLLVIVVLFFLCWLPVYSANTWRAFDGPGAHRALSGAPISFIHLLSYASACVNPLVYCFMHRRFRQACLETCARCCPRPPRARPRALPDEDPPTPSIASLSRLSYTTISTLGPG
Assay: Measurement of [Ca2+]i
Assay type: cell-based
Conditions: COS-7 cells transiently expressing the CCK-BR

cholecystokinin octapeptide [CCK-8]
concentrations sufficient to fully stimulate Ca2+ release: nanomolar concentrations
